Measurements published in patent US5486534A, “3,4-substituted pyrazoles for the treatment of inflammation” (G. D. Searle & Co., priority 1994, dated 1996).

Chains of the proteins cited; added tags and fusions are not shown. Residues count along the entry.
UniProt P23219, 24-599: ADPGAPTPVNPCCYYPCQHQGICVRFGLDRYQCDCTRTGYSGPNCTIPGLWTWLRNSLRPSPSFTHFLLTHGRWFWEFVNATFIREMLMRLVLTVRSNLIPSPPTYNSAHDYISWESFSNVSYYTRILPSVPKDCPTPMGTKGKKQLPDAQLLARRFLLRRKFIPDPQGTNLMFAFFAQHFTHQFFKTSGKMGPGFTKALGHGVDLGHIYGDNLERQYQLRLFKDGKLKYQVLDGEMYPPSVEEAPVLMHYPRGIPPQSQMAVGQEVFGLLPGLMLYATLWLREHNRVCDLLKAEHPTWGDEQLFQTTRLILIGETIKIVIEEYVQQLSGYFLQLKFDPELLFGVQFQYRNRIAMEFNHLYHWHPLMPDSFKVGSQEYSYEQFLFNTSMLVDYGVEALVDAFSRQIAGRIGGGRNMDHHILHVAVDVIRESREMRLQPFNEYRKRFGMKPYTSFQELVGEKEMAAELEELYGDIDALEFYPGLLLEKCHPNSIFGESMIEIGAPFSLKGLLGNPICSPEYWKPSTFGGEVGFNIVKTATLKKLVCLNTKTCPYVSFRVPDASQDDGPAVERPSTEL

Target: Human COX I (Homo sapiens, UniProt P23219)
Experiment: biochemical
Conditions: read-out: Human COX I ID50
Procedure: Evaluation of COX I and COX II activity in vitro
The COX II inhibition activity of the compounds of this invention illustrated in the Examples was determined by the following methods.
a. Preparation of recombinant COX baculoviruses
A 2.0 kb fragment containing the coding region of either human or murine COX-I or human or murine COX-II was cloned into a BamH1 site of the baculovirus transfer vector pVL1393-(Invitrogen) to generate the baculovirus transfer vectors for COX-I and COX-II in a manner similar to the method of D. R. O'Reilly et al (Baculovirus Expression Vectors: A Laboratory Manual (1992)). Recombinant baculoviruses were isolated by transfecting 4 μg of baculovirus transfer vector DNA into SF9 insect cells (2×10e8) along with 200 ng of […] baculovirus plasmid DNA by the calcium phosphate method. See M. D. Summers and G. E. Smith, A Manual of Methods for Baculovirus Vectors and Insect Cell Culture Procedures, Texas Agric. Exp. Station Bull. 1555 (1987). Recombinant viruses were purified by three rounds of plaque purification and high titer (10E7-10E8 pfu/ml) stocks of virus were prepared. […]
COX activity was assayed as PGE2 -formed/μg protein/time using an ELISA to detect the prostaglandin released. […] The PGE2 formed was measured by standard ELISA technology (Cayman Chemical).

Question: How did the IC50 turn out when `CS(=O)(=O)c1ccc(-c2nn(CC(=O)O)c(C(F)(F)F)c2-c2ccc(F)cc2)cc1` [Example 10, [4-(4-Fluorophenyl)-3-[4-(methylsulfonyl)phenyl]-5-(trifluoromethyl)-1H-pyrazol-1-yl]acetic acid] was run?
Answer: > 100 µM
